Tested on: human embryonic lung fibroblast (HELF) cell cultures
Experiment: Anti-cellular (toxic and cytostatic) effect on HELF cells in the same screening test
Type: cell-based
Settings: 6 days at 37° C.

| SMILES | CIC50 (μM) (HELF) = highest concentration at which no obvious anticellular effect is evident |
| --- | --- |
| Cc1ccc(S(=O)(=O)N=C(N)NCCC[C@H](NC(=O)OCc2c(Cl)cccc2Cl)C(=O)N[C@H](C(=O)NC(C=O)Cc2ccccc2)C(C)C)cc1 (some centres unmarked) | 0.52 µM |
| Cc1ccc(S(=O)(=O)N=C(N)NCCC[C@H](NC(=O)COc2ccc(F)cc2F)C(=O)N[C@H](C(=O)NC(C=O)Cc2ccccc2)C(C)C)cc1 (some centres unmarked) | 4.38 µM |

— US5633231A, “Valine-containing pseudopeptides with antiviral activity” (Bayer Aktiengesellschaft, priority 1993, dated 1997)
